This note sets out measurements from PMC3479967, “Drug-Drug Interactions Potential of Icariin and Its Intestinal Metabolites via Inhibition of Intestinal UDP-Glucuronosyltransferases” (Evidence-based Complementary and Alternative Medicine : eCAM, 2012).

In the experiment the target is T1, UGT2B7 (Homo sapiens, UniProt P16662).
T1 sequence (P16662 24-529): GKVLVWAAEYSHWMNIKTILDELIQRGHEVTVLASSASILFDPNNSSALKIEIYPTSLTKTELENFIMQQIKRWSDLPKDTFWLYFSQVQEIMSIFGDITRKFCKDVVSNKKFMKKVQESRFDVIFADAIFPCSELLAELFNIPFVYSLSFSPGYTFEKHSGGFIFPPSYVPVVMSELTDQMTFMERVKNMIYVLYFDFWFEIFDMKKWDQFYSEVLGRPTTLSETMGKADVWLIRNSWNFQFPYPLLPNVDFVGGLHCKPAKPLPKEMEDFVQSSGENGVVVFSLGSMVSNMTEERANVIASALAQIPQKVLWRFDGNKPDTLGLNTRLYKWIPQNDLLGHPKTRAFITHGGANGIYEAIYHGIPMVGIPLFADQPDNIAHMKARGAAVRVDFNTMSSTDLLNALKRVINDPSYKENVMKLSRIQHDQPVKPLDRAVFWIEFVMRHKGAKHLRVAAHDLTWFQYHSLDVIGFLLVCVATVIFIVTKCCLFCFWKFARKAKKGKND
Kind of experiment: Inhibition of recombinant UGT2B7 activity (4-MU glucuronidation). Here is the method:
A panel of recombinant human UGT supersomes (UGT1A1, UGT1A3, UGT1A4, UGT1A6, UGT1A7, UGT1A8, UGT1A9, UGT1A10, UGT2B4, UGT2B7, UGT2B15, and UGT2B17) expressed in baculovirus-infected insect cells were purchased from BD Gentest Corp. (Woburn, MA, USA).
4-MU, a nonselective substrate of UGTs, was used as probe substrate for all UGTs except UGT1A4. Incubations with each individual enzyme were conducted using conditions previously described. There was a 5 min preincubation step at 37°C before the reaction was started by addition of UDPGA. The incubation mixtures were then centrifuged at 20,500 ×g for 15 min to obtain the supernatant. Aliquots (20 μL) were then analyzed by HPLC. The HPLC system (SHIMADZU, Kyoto, Japan) consisted of an SCL-10A system controller, two LC-10AT pumps, a SIL-10A auto injector, and a SPD-10AVP UV detector. Chromatographic separation was achieved using a Kromasil ODS column (4.6 × 150 mm I.D., 5 μm particle size) at a flow rate of 1 mL/min and UV detection at 316 nm. The mobile phase consisted of 10 mM KH2PO4, pH 2.7 (A) and acetonitrile (B). […]
Inhibition data from experiments were graphically represented by Dixon plots. K i values were calculated by nonlinear regression using the equations for competitive inhibition (1), noncompetitive inhibition (2), or mixed inhibition (3), [22] […]

A word on the IC50: it is the concentration that inhibits the measured activity by half. In general, Ki refers to a dissociation constant, usually derived from enzyme kinetics or from competition with a known ligand. With Icariside II, under “read-out: IC50 for inhibition of UGT2B7 activity, recombinant human UGT2B7, 350 μM 4-MU, mean ± SD”, the IC50 turned out to be 12.5 ± 0.1 µM. For the same substance, the Ki (read-out: Ki against UGT2B7, recombinant UGT2B7, 4-MU substrate, mean ± standard error) came out at 8.2 ± 1.5 µM.
